Among the data in patent US20190142913A1 (CREATIVE BIOTHERAPEUTICS, published 2019) are Kd values, retold here.

Chains of the proteins cited; added tags and fusions are not shown. Residues count along the entry.
UniProt P11021, 19-654 limits assumed: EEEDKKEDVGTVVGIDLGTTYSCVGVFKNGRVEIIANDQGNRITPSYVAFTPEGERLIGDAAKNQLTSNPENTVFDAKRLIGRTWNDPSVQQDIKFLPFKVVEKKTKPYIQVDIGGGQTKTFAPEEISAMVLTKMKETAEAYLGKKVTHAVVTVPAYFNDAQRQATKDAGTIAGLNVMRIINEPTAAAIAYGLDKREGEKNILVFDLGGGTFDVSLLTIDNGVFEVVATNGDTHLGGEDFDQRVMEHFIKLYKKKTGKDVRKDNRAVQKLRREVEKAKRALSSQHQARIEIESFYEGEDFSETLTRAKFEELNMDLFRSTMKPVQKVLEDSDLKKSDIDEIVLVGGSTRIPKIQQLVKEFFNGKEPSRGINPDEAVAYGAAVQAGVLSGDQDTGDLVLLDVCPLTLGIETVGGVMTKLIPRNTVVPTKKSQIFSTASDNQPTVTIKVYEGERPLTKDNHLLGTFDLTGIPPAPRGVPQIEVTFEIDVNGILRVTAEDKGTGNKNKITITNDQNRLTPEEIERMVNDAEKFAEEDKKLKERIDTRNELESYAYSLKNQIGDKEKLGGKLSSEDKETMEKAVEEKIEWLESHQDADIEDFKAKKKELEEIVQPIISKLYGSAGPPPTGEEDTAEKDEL

As usually defined, the Kd is the constant that tells how readily two partners part at equilibrium. High values mean weaker binding, low ones tighter binding.

This experiment addresses T1, GRP78 (glucose-regulated protein 78), StressMarq (UniProt P11021 19-654, limits assumed).
T1 construct: Unlabelled GRP78: coated on 96-well plates (ELISA), added to U87 cells, or added at 10 ug/ml to cell cultures; also called soluble GRP78
Briefly: ELISA, GRP78 coated on 96-well plate, Neutra-avidin-HRP detection. As to the method:
Comparison of GRP78 binding for the two kringle domains was performed by a GRP78 ELISA. GRP78 (StressMarq) (1 ug/ml@ 100 μl/well) was bound to a tissue culture coated 96 well plate overnight at 4° C. After washing 3× with PBS, the plates were blocked with superblock (Pierce) for 1 hour at room temperature. The block was removed and K5-biotin complex (i.e., K5(3-89 Active Zone)frag SEQ ID NO:1-biotin complex) and Kr1-biotin complex (i.e., Kr1(1-91 Active Zone)frag SEQ ID NO:19-biotin complex) were added to the plate at increasing concentrations (0.1 pM to 100 nM) at 4° C. for 2 hours. The plate was then washed 3× with PBS again and Neutra-avidin-HRP was added to the wells for 1 hour at room temperature. The wells were washed again with PBS and one step TMB (Pierce) was added to the wells with absorbance recorded after 30 minutes to measure kringle binding. […] To analyze these peptides for binding to GRP78, we used a 96 well competition binding assay. The assay consisted of binding GRP78 to a tissue coated 96 well plate as listed above. […] After the plate was washed, Neutra-avidin-HRP was added and bound K5 was measured by adding HRP substrate, TMB, as listed above.

B1: K5-biotin complex (K5(3-89 Active Zone)frag SEQ ID NO:1-biotin complex) (other)
chain: SEEDCMFGNGKGYRGKRATTVTGTPCQDWAAQEPHRHSIFTPETNPRAGLEKNYCRNPDGDVGGPWCYTTNPRKLYDYCDVPQCAAPKS
modifications: biotin label, site not stated
notes: also called K5-fragment biotin
On to B1, for which the Kd amounted to 0.6 nM.
